Here are results for two molecules from paper PMC6737539 (Journal of medicinal chemistry, 2019).

A short description of series [1]: Liver microsomal metabolic stability, human. Particulars: 10 μM, 30 min. The class given is in vitro ADME.
For series [2] the following is noted: HFD-fed adi-hRBP4 mice, 20 mg/kg per day.

For the molecule `O=C(O)c1ccccc1NC(=O)N1CCC(c2ccccc2C(F)(F)F)CC1` [Compound 3, reference compound], the “Microsomal Stability (% remaining) HLM” value in series [1] stood at 3.0 % remaining.
For the molecule `N#Cc1ccc2nnc(C(=O)N3CCC(c4cccc(F)c4C(F)(F)F)CC3)n2c1` [Compound 59, 3-(4-(3-Fluoro-2-(trifluoromethyl)phenyl)piperidine-1-carbonyl)-[1,2,4]triazolo[4,3-a]pyridine-6-carbonitrile], the “food intake (consumption of the HFD chow)” value in series [2] is reported as “did not alter consumption of the HFD chow”.
